The values below come from US12011433B2, “Mofezolac derivatives as multi-functions selective COX-1 inhibitors” (UNIVERSITÁ DEGLI STUDI DI BARI “ALDO MORO”, priority 2016, dated 2024).

Amino acid sequences for entries named in this document (tags omitted). Residues count along the entry.
UniProt P05979, 25-600: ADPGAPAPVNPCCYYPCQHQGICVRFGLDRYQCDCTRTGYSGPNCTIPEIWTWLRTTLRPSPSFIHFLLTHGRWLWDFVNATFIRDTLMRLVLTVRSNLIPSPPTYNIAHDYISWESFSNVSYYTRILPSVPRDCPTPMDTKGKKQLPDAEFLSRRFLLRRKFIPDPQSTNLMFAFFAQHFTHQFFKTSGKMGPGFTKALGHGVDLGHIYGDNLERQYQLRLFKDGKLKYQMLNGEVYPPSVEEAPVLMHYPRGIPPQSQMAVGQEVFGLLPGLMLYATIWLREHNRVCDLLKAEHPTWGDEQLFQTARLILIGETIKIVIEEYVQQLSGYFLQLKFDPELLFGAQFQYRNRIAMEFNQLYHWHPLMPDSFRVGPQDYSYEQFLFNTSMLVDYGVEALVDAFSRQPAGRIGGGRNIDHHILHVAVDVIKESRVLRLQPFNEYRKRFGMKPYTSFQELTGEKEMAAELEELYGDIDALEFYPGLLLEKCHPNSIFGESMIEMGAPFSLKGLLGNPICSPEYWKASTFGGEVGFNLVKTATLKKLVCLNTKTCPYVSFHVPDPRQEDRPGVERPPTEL

The target in this test is ovine COX-1 (Ovis aries (Sheep), UniProt P05979). Briefly: colorimetric COX (ovine) inhibitor screening assay kit. The format is biochemical. As to the method:
The target compounds were evaluated for their ability to inhibit ovine COX-1 and COX-2 enzyme catalytic activity (percent inhibition at 50 mm, unless otherwise indicated). […] Enzyme inhibition was determined using a colorimetric COX (ovine) inhibitor screening assay kit (Cayman Chemicals, Ann Arbor, MI, USA) following the manufacturer's instructions. Stock solutions of test compounds were dissolved in a minimum volume of DMSO.

In turn, `COc1ccc(-c2noc(CC(=O)O)c2-c2ccc(OC)cc2)cc1` [drawing 42, reference compound] had an IC50 of 7.9 nM.
